Experimental data reported in US20220298225A1, “METHODS AND COMPOSITIONS FOR TREATING CANCER WITH COLLAGEN BINDING DRUG CARRIERS” (The University of Chicago, priority 2019, published 2022).

Experiments:
B = assay: B
Procedure: Table printed on a drawing sheet, FIG. 2A-D
(A) Aldoxorubicin, Dox-SA or Dox-CBD-SA (5 mg/kg for Dox basis) were administered to tumor-free FVB mice via tail vein injection (i.v.). Blood plasma was collected at indicated time points. Plasma concentration of Dox was measured by fluorescence (mean±SEM, n=4 for aldoxorubicin, n=5 for Dox-SA and Dox-CBD-SA). (B) Plasma half-lives of Dox were calculated using two-phase exponential decay: MFI (t)=Ae^−αt+Be^−βt. t½, α, fast clearance half-life; t½, β, slow clearance half-life. (mean±SEM. n=4 for aldoxorubicin, n=5 for Dox-SA and Dox-CBD-SA). (C) MMTV-PyMT tumor bearing mice were treated with aldoxorubicin, Dox-SA, or Dox-CBD-SA (4.16 mg/kg for Dox basis). At the indicated time points, tumors were harvested, and the amount of Dox within the tumors was quantified (mean±SEM. n=5 for 2 h, n=7 for 24 h per group). (D) 100 μg of DyLight 488-labeled SA or equimolar amounts of DyLight 488-labeled CBD-SA were injected i.v. to MMTV-PyMT tumor bearing mice. 1 h after injection, tumors were harvested and fluorescence was analyzed by confocal microscopy. Tissues were also stained with DAPI and anti-CD31 antibody. Scale bar=100 μm. Representative images of 3 tumors, each. Two experimental replicates. […]
First reader's note: Panel B of FIG. 2A-D; each result cell holds the value together with its ± error.

[1] = Plasma pharmacokinetics of Dox conjugates in tumor-free FVB mice; type: in vivo, mouse; settings: 5 mg/kg Dox basis i.v.
Procedure: A previous report about polypeptide-Dox nanoparticles was referred (40) . To measure pharmacokinetics of Dox, 5 mg/kg Dox equivalent of aldoxorubicin, Dox-SA, or Dox-CBD-SA was injected intravenously into female FVB mice. Blood samples were collected in EDTA coated tubes at 5 min, 30 min, 1 h, 4 h, 12 h, 25 h, 50 h, and 75 h after injection. Blood samples were stored at 4° C. until the end of sample collection. The samples were centrifuged (2000×g, 5 min) and plasma was collected. Plasma samples diluted in acidified isopropanol (75 mM HCl, 10% water, 90% isopropanol) were loaded onto a 96 well black plate (100 μL/well). Fluorescence was measured as described above. Plasma samples were also collected from mice which received no injections, diluted in acidified isopropanol, and measured to create the standard curve of background fluorescence. Exponential two-phase decay (Y=Ae^−αt+Be^−αt) fitting was used to calculate the plasma half-life. Fast clearance half-life: t1/2, □, slow clearance half-life: t1/2, α. Data was analyzed using Prism software (v7, GraphPad).

MMTV-PyMT cells = assay: Cellular uptake of Dox-conjugates (confocal microscopy); type: cell-based, mouse; settings: after 1 h of incubation, 50 μM equivalent of Dox
Procedure: To evaluate the cellular uptake of Dox-conjugates, MMTV-PyMT cells were seeded in 96 well high content imaging plate (Corning) at 5000 cells/well and incubated overnight. Cells were washed with PBS, and treated with free Dox, Dox-SA, or Dox-CBD-SA dissolved in DMEM (110 mg/L of sodium pyruvate, 10% heat inactivated FBS, 1% penicillin/streptomycin, Phenol red (-)) at the concentration of 50 μM equivalent of Dox. After the incubation, cells were washed twice, treated with 75 nM of Lysotracker Deep Red and further incubated 30 min at 37° C. Cells were washed twice and observed by IX83 microscope (Olympus) with ×60 magnification. Images were processed using ImageJ software (NIH). Scale bar; 20 μm.

MMTV-PyMT breast cancer [2] = assay: Tumor-infiltrating lymphocytes by flow cytometry in MMTV-PyMT model; type: in vivo, mouse; settings: 7 days after treatment, 5 mg/kg
Procedure: MMTV-PyMT model was prepared as described above. Mice were treated on day 7 with aldoxorubicin, Dox-SA or Dox-CBD-SA (5 mg/kg). Mice were sacrificed on day 14. Cell suspensions were obtained from each tumor as described previously (9). Tumors were harvested and digested in Dulbecco's Modified Eagle Medium (DMEM) supplemented with 2% FBS, 2 mg/mL collagenase D and 40 μg/mL DNase I (Roche) for 30 min at 37° C. Single-cell suspensions were obtained by gently disrupting the organs through a 70 μm cell strainer. Red blood cells were lysed with ACK lysing buffer (Quality Biological). Fixable live/dead cell discrimination was performed using Fixable Viability Dye eFluor 455 (eBioscience) according to the manufacturer's instructions. Following a washing step, cells were stained with specific antibodies for 20 min on ice prior to fixation. Following antibodies were used to stain the cells: CD3 (145-2C11, BD Biosciences), CD4 (RM4-5, BD Biosciences), CD8α (53-6.7, BD Biosciences), CD45 (30-F11, BD Biosciences), and NK1.1 (PK136, BD Biosciences). All flow cytometric analyses were done using a Fortessa flow cytometer (BD Biosciences) and analyzed using FlowJo software (Tree Star).

MMTV-PyMT breast cancer [3] = assay: MMTV-PyMT murine breast cancer model, anti-tumor efficacy; type: in vivo, mouse; settings: single i.v. injection 5 mg/kg Dox basis on day 7
Procedure: The MMTV-PyMT murine breast cancer model was prepared as described previously (9). A total of 5×10^5 MMTV-PyMT cells suspended in 50 μL of PBS were injected subcutaneously into the mammary gland on the right side of each mouse. Mice were treated with aldoxorubicin, Dox-SA or Dox-CBD-SA on day 7 (5 mg/kg) via tail vein injection. Tumors were measured with a digital caliper at indicated time points, and volumes were calculated as ellipsoids, where V=4/3×3.14×depth/2×width/2×height/2. Mice were sacrificed when tumor volume had reached over 500 mm^3 or when active ulceration was observed. For the therapeutic experiment, FVB mice originated from Charles River origin were used. For the tumor infiltrating lymphocytes (TILs) analysis, FVB mice originated from both Jackson Laboratory and Charles River were used. The proportion of mice from different providers was equalized among all groups.

Substance | t½, α (B) | t½, β (B) | blood plasma half-life of Dox [1] | intracellular localization of Dox fluorescence (MMTV-PyMT cells) | number of CD4+ T cells within the tumor per unit tumor mass (MMTV-PyMT breast cancer [2]) | number of CD8+ T cells within the tumor per unit tumor mass (MMTV-PyMT breast cancer [2]) | number of NK cells within the tumor per unit tumor mass (MMTV-PyMT breast cancer [2]) | tumor growth (MMTV-PyMT breast cancer [3])
Dox-SA: unmodified mouse SA thiolated with Traut's reagent and conjugated with aldoxorubicin in the same way [listing 1 of 2 here] | 3 ± 0.468 min | 8.4 ± 1.7 h | – | – | – | – | – | –
Dox-SA: unmodified mouse SA thiolated with Traut's reagent and conjugated with aldoxorubicin in the same way [listing 2 of 2 here] | – | – | shorter than the reported half-life of naïve mouse SA | punctuate fluorescence was observed | not | not | not | significantly suppressed tumor growth
